Data on 51 molecules can be found in PubChem BioAssay AID2071 (Sanford-Burnham Center for Chemical Genomics, 2009).

Only a part is listed here, and it is no random draw. Activity calls are given as the source filed them. No stated cut-off is given here; in the data, active means inhibition mostly above about 24% (no sharp cut-off); inactive means mostly below about 32%.

In general, inhibition refers to the drop in the measured response relative to a control, in per cent.

This experiment can be described thus: NALP1 inflammasome inhibitors in reconstituted yeast, colorimetric, S. cerevisiae, triplicate retest (AID 2071). The note with it: S. cerevisiae NALP1/ASC/caspase-1 growth, X-gal OD620, 72 h; at 10 µM; hits give high values.
For `CCOc1ccc(C)cc1CN(CCCl)CCCl`, the inhibition was inactive: 10.1%.
Next, `O=C(NCC1(N2CCCCC2)CCCCC1)c1ccc(F)cc1`: inactive: 5.7%.
Next, `COc1ccc(NC2CCN(CCc3ccccc3)CC2)c(OC)c1`: inactive: 11.1%.
Next, `CCOC(=O)N1CCC(Nc2ccc(F)cc2)CC1`: inactive: 8.9%; `COc1cc(C(=O)NCC2(N(C)C)CCCCC2)ccc1OC(F)F`: inactive: 1.7%; `Cc1ccc(OCC(C)C)c(CN(CCCl)CCCl)c1`: inactive: 17.1%.
As to `COc1ccc(C(=O)NCC2(N3CCCCC3)CCCCC2)cc1`, the inhibition was inactive: 13.4%.
`COc1ccc(C(=O)NCC2(N3CCCCC3)CCCCC2)c(OC)c1OC`: the inhibition is inactive: -8.4%.
In the case of `CC(C)(C)OC(=O)N1CCC(N(C(=O)c2ccccc2)c2ccc(F)cc2)CC1` it was inactive: 17.1%; in that of `O=C(NCC1(N2CCCCC2)CCCCC1)c1ccc(=O)[nH]c1`, inactive: -3.1%; in that of `CSc1ccccc1C(=O)NCC1(N2CCCCC2)CCCCC1`, inactive: 26%.
In the case of `Cc1cc(C)cc(N(C(=O)c2ccccc2)C2CCN(C(=O)OC(C)(C)C)CC2)c1` it was inactive: -10.1%; in that of `O=C(NCC1(N2CCOCC2)CCCCC1)c1cc2ccccc2o1`, inactive: 8.5%.
In the case of `N#CC1(Nc2ccccc2)CCN(Cc2ccccc2)CC1` it was inactive: -1.4%; in that of `O=C(OC1CN2CCC1CC2)C1c2ccccc2Oc2ccccc21` (stereo unspecified), inactive: 7.2%.
As for `CCOC(=O)N1CCC(Nc2ccc(OC)cc2)CC1`, the inhibition was inactive: 13.5%.
Next, `CC(C)c1ccc(NC2CCN(C(=O)OC(C)(C)C)CC2)cc1`: inactive: 6.3%; `COc1ccc(CN(CCCl)CCCl)cc1Cl`: inactive: 1.3%; `CN(C)c1cccc(C(=O)NCC2(N3CCCCC3)CCCCC2)c1`: inactive: -18.4%.
Next, `COc1cc(OC)c(C(=O)NCC2(N(C)C)CCCCC2)cc1OC`: inactive: 13.3%.
In the case of `CCCOc1ccc(C(=O)NCC2(N(C)C)CCCCC2)cc1OC` it was inactive: -90%; in that of `O=C(NCC1(N2CCCCC2)CCCCC1)c1ccc(OC(F)F)cc1`, inactive: 29.4%; in that of `N#CC1(Nc2ccccc2)CCN(CCc2ccccc2)CC1`, inactive: -2.2%.
As to `O=C(NCC1(N2CCCCC2)CCCCC1)c1cccc([N+](=O)[O-])c1`, the inhibition was inactive: -18.3%.
In the case of `O=C(NCC1(N2CCCCC2)CCCCC1)c1cccc(C(F)(F)F)c1` it was inactive: 1.2%; in that of `COc1cc(C(=O)NCC2(N3CCCCC3)CCCCC2)ccc1OC(F)F`, inactive: 5.1%.
For `O=C(NCC1(N2CCOCC2)CCCCC1)c1cc(=O)[nH]c2ccccc12`, the inhibition is active: 42.8%.
Next, `CN1CCN(CCOC(=O)C(O)(c2ccccc2)c2ccccc2)CC1`: inactive: 28.9%; `COc1ccc(NC2CCN(C(=O)OC(C)(C)C)CC2)cc1`: inactive: -0.1%.
In the case of `N#Cc1ccc(C(=O)NCC2(N3CCCCC3)CCCCC2)cc1` it was inactive: 8.6%; in that of `CC(C)(C)OC(=O)N1CCC(N(C(=O)c2ccccc2)c2ccc(Cl)cc2)CC1`, inactive: -21.1%; in that of `CN(C)C1(CNC(=O)c2cccc(C#N)c2)CCCCC1`, inactive: 9%.
Next, `c1ccc(CN2CCC(Nc3ccccc3)CC2)cc1`: inactive: 17.1%; `CCCN1CCC(Nc2cc(OC)cc(OC)c2)CC1`: inactive: 11%.
Consider `COc1ccc(C(=O)NCC2(N3CCOCC3)CCCCC2)cc1OC`, for which the inhibition is inactive: 0.7%.
Take `CCOC(=O)N1CCC(Nc2ccc(C)cc2)CC1`: the inhibition was inactive: 5.4%.
In the case of `N/C(=N\O)c1c(N)no[n+]1[O-]` it was inactive: 21.3%; in that of `O=C(OC1CN2CCC1CC2)C1c2ccccc2C=Cc2ccccc21` (stereo unspecified), inactive: 12%; in that of `CCOc1ncccc1C(=O)NCC1(N2CCOCC2)CCCCC1`, inactive: -9%.
Next, `CN1CCC(Nc2ccc(F)c(Cl)c2)CC1`: inactive: 3.2%; `CC(C)(C)OC(=O)N1CCC(Nc2ccccc2)CC1`: inactive: -4.7%.
In the case of `O=C(O)C1(Nc2ccccc2)CCN(Cc2ccccc2)CC1` it was inactive: 3.8%; in that of `CCCOc1ccc(C(=O)NCC2(N(C)C)CCCCC2)cc1`, inactive: 10.4%; in that of `COc1cc(OC)cc(C(=O)NCC2(N3CCOCC3)CCCCC2)c1`, inactive: 7.8%.
With `COc1cccc(C(=O)N(c2cc(C)cc(C)c2)C2CCN(C(=O)OC(C)(C)C)CC2)c1`, the inhibition was inactive: 13.7%.
Next, `CCC(CO)(C(=O)OC1CN2CCC1CC2)c1ccccc1` (stereo unspecified): inactive: -8.2%; `CCCOc1ccc(C)cc1CN(CCCl)CCCl`: inactive: 1.3%.
Regarding `COc1cc(OC)cc(C(=O)NCC2(N3CCCCC3)CCCCC2)c1`, the inhibition is inactive: 22%.
Next, `Fc1ccccc1NC1CCN(Cc2ccccc2)CC1`: inactive: 9.3%.
In the case of `CCN1CCC(Nc2cccc(F)c2)CC1` it was inactive: 45.9%; in that of `CN(C)c1ccc(C(=O)NCC2(N3CCCCC3)CCCCC2)cc1`, inactive: 5.8%.
